The numbers were not newly measured in PMC4615734 (Theranostics, 2015), which cites them from elsewhere.

For this data set the following is noted: standard FDG-PET.

On to `OC[C@H]1OC(O)[C@H](F)[C@@H](O)[C@@H]1O` (some centres unmarked) [FDG, ^18F-fluoro-deoxy-glucose], for which the effective dose entry is recorded as “approximately 0.019 mSv/MBq”. Also, the “effective dose at a dose of 300 MBq” value (300 MBq) is 5.7 mSv.
